Test results from article PMC11310375 (EJNMMI Radiopharmacy and Chemistry, 2024).

Test system: MCF-7 cells
Test: Caspase activity assay with fluorogenic substrate Ac-DEVD-AMC in cell lysates
Type: cell-based, human
Conditions: MCF-7 cells treated with STS

SMILES: CN[C@@H]1C[C@H]2O[C@@](C)([C@@H]1OC)n1c3ccccc3c3c4c(c5c6ccccc6n2c5c31)C(=O)NC4 [STS, staurosporine]
- AMC liberation (caspase activity): 253 ± 56 pmol AMC
